From PMC4209961 (Journal of nuclear medicine : official publication, Society …, 2013) come the findings set out here.

The data set deals with U87MG tumors. Also noted: species or system athymic nude mice. Particulars: mouse, in vivo.

^18F-FDG: the “tumor uptake of ^18F-FDG relative to that of ^18F-Alfatide II” value is 2–4 fold.
